Results on one compound are retold here after patent US5268003A (priority 1992, dated 1993).

Molecules are shown by their SMILES.

A short description of data set [1]: Peracid stability in a heavy-duty liquid at 40° C. Particulars: 35% surface-actives, pH 4.5, borax/sorbitol, approximately 2 wt. % peracid.
A short description of data set [2]: Differential Scanning Calorimetry (DSC), thermal sensitivity. It counts as physicochemical. Background: Differential scanning calorimetry records heat flow against a reference as temperature is scanned.
The conditions of data set [3]: cited from earlier work.
The mark [4] stands for this setting: corrected to 100% peracid content, error is 5% or less.

Regarding `O=C(CCCCCCCCCCC(=O)OO)OO`, the “t1/2 at 40° C.” value in data set [1] turned out to be 120 h. In addition, in data set [2] (setting [4]), the “Energy Released (Cal g^-1)” value is 366 cal/g and the “Energy Released (Kcal mol^-1)” value was determined as 96 kcal/mol. Besides, the “Onset of Self-Heating” value in data set [2] (heated at 5° C./minute from 30° C., sealed pans) came out at 96 °C. Further, in data set [3] (formulated with 10% surfactant), the “stability under storage conditions” value is listed as “good stability”. Moreover, in data set [3] (surfactant level of the formulation increased to 22%), the half-life change entry is reported as “decreased dramatically”.
